# According to US20260265405A1:
# How the values were obtained:
# [1] = molecular target: membrane-bound human MSLN (on CHOK1-hu MSLN cells and endogenously on COV644 cells) (human) (UniProt Q13421); assay: flow cytometry on CHOK1-human MSLN cells, Alexa Fluor 488 anti-human IgG detection [panel A]
# [2] = molecular target: membrane-bound human MSLN (on CHOK1-hu MSLN cells and endogenously on COV644 cells) (human) (UniProt Q13421); assay: flow cytometry on COV644 cells (endogenous human MSLN), Alexa Fluor 488 anti-human IgG detection [panel A]
# [3] = molecular target: membrane-bound human MSLN (on CHOK1-hu MSLN cells and endogenously on COV644 cells) (human) (UniProt Q13421); assay: flow cytometry on CHOK1-human MSLN cells, Alexa Fluor 488 anti-human IgG detection [panel B]
substance,measurement,setting,value
PR000685 (Amatuximab) (antibody),EC50 (read off the curve),[1],0.6 nM
same,EC50 (read off the curve),[2],0.2 nM
same,EC50 (read off the curve),[3],0.6 nM
